Yeast mating assay 2: variants of the scFv Ab-91

The measurements come from Engelhart et al. 2022 (doi:10.1038/s41597-022-01779-4) through the FLAb antibody collection.

The target is the same throughout: PDVDLGDISGINAS, from the HR2 region of SARS-CoV-2 spike.

Each scFv is VL, three GGGGS repeats, VH, as in the parent Ab-91, and differs from it in the CDRs of the heavy chain only.
VL: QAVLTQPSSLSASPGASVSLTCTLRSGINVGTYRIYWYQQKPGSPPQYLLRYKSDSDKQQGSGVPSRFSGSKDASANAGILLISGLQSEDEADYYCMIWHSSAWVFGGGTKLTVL
VH: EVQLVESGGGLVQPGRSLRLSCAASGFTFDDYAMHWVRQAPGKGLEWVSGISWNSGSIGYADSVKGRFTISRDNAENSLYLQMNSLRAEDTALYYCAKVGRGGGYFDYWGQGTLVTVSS

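Variants in AAYL51 differ from the parent at up to three CDR positions; double and triple changes were sampled at random. The scFvs were displayed on barcoded MATa yeast, the peptide on MATalpha yeast. After mating in shaken culture at 30 °C for 16 h, diploids were selected and their barcode pairs sequenced. The ratio of observed to expected reads was calibrated, replicate by replicate, on BCL2-family standards whose Kd was known from biolayer interferometry. There are three technical replicates.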

Each variant is given by its three heavy chain CDRs, as the data file delimits them; those of the parent are GFTFDDYAMH, GISWNSGSIGYADSVK, VGRGGGYFDY. All variants listed here change S57 of the VH, counted from its first residue. The Kd shown is the geometric mean over detected replicates; a lower Kd is a better binder. "no signal" marks a missing value. The strain was present, yet no cells mated with the target were sequenced in any replicate, which points to weak or no binding. Parent in this assay: reference entry 72 nM, copy in this library 7.5 nM.

For GFTFDDYAMH / GISWNSGQILYADSVK / VGRGGGYFDY, the assay gave no signal (0 of 3 replicates; controls 0 of 9). For GFTFDDYAMH / GISWNSGPIGYKFSVK / VGRGGGYFDY, the assay gave no signal (0 of 3 replicates; controls 1 of 9). Variant GFTFDDYAMH / GCRWNSGDIGYADSVK / VGRGGGYFDY showed no signal (0 of 3 replicates; controls 0 of 9). For GFTFDDYAMH / GISWHSGHIGYADSVK / VGRGGGYFDY, the assay gave 13 µM (2 of 3 replicates; controls 1 of 9). Variant PFTFKDYAMH / GISWNSGNIGYADSVK / VGRGGGYFDY gave 4.8 µM (1 of 3 replicates; controls 1 of 9). Variant HFTKDDYAMH / GISWNSGGIGYADSVK / VGRGGGYFDY showed 140 µM (3 of 3 replicates; controls 6 of 9). With GFTFDDYAMH / QISWNSGAIGYADSVK / VGRGGGYFDY the result was 8.8 µM (1 of 3 replicates; controls 2 of 9). With GFTFDDYAMH / GISWNSGFYGYADSVK / VGRGGGYFVY the result was 260 µM (2 of 3 replicates; controls 5 of 9). Variant GFTFDDYAMH / GIRWNQGKIGYADSVK / VGRGGGYFDY showed 6.3 µM (1 of 3 replicates; controls 1 of 9).

Variant GFTFDDYAMH / GISWNHRMIGYADSVK / VGRGGGYFDY showed no signal (0 of 3 replicates; controls 2 of 9). Variant GFTEDDYAMH / GISWNSGHIGYADSVK / VGRGWGYFDY gave 34 µM (2 of 3 replicates; controls 2 of 9). For GFGFDDYAMH / GISNNSGDIGYADSVK / VGRGGGYFDY, the assay gave 200 nM (2 of 3 replicates; controls 0 of 9). For GFTFDDYAMH / GISWNSGTIGYIDSVK / VGRGGGYFDR, the assay gave 350 µM (3 of 3 replicates; controls 7 of 9). For GFTFKDYAMH / GISWNLGCIGYADSVK / VGRGGGYFDY, the assay gave no signal (0 of 3 replicates; controls 0 of 9). Variant GFTFDDYAMH / GNSWNSGCIGYADSVK / VGRGGGYFDY gave no signal (0 of 3 replicates; controls 0 of 9). Variant GFTFDDYAMH / GISWNSGGIGYADSVK / VGRGGGYFDY showed 390 nM (3 of 3 replicates; controls 1 of 9). With GFTFDDYAMH / GISWNSGYVGYADSVK / VGRHGGYFDY the result was 51 µM (2 of 3 replicates; controls 6 of 9). With GFTTDDYAMH / GISWNSGGIGYCDSVK / VGRGGGYFDY the result was no signal (0 of 3 replicates; controls 0 of 9).

With GFTFDDYAMH / GISWNSGNIGYADSVK / VGRVGGYFDY the result was 4.2 µM (3 of 3 replicates; controls 7 of 9). Variant GFTFDDYAYH / GISWNSGWIGYADSVK / VGRGGLYFDY showed 41 µM (2 of 3 replicates; controls 2 of 9). For GFRFDDYARH / GISWNSGDIGYADSVK / VGRGGGYFDY, the assay gave 2.8 nM (3 of 3 replicates; controls 2 of 9). Variant GFTFDDYAMH / GYSWNSGQIGYADSGK / VGRGGGYFDY showed 5.4 µM (1 of 3 replicates; controls 3 of 9). Variant GFTFDDYAMH / IISWNSGGIGYADSVQ / VGRGGGYFDY showed no signal (0 of 3 replicates; controls 3 of 9). Variant HFTFDDYAMH / GISWNSGMIGYAMSVK / VGRGGGYFDY showed 54 µM (2 of 3 replicates; controls 2 of 9). For GFTYDDYAMH / GISWNSGCIGYADSVK / VGRRGGYFDY, the assay gave no signal (0 of 3 replicates; controls 2 of 9). For GFTFDDYAMH / GISWNSWIIGYADSVK / VGRGGGYADY, the assay gave no signal (0 of 3 replicates; controls 1 of 9). Variant GFTFDDYAMH / GDSWNSGRIGYADSVK / VGRGGGYADY showed 160 µM (1 of 3 replicates; controls 1 of 9).

Variant GFTFDDYAMH / GISWNSGAIGYADSVR / VGRTGGYFDY gave 8.4 µM (1 of 3 replicates; controls 3 of 9). For GFTFDDYCMH / GISWNSGEFGYADSVK / VGRGGGYFDY, the assay gave 27 µM (2 of 3 replicates; controls 4 of 9). With GFTFDDYAMH / GISWNSGYIGYADSVK / VGRGGGCFDY the result was 19 µM (1 of 3 replicates; controls 4 of 9). For GFTFDDYAMH / GISFDSGAIGYADSVK / VGRGGGYFDY, the assay gave 2.9 nM (3 of 3 replicates; controls 3 of 9). Variant GFTFDDYAMH / GISWNSGLIGYADSVK / VGRGGGYFDY gave 45 µM (1 of 3 replicates; controls 3 of 9). Variant GFTFDDYAMY / GISWNSGYIGYATSVK / VGRGGGYFDY showed 3.2 µM (1 of 3 replicates; controls 1 of 9). For GFTQDDYAMH / GISWNSGLIGYRDSVK / VGRGGGYFDY, the assay gave no signal (0 of 3 replicates; controls 1 of 9). Variant GFTFDDYAMH / GISWNSGTIGYADSVK / VYRGGGYFDY gave 45 µM (1 of 3 replicates; controls 4 of 9). With GFTFDDYAMH / GINWNSGAIGYADSVK / EGRGGGYFDY the result was 5.1 nM (3 of 3 replicates; controls 1 of 9).

Variant GFTFEDYAMH / GISWNSGFIGYADSVK / RGRGGGYFDY gave 110 µM (1 of 3 replicates; controls 0 of 9). For GFTFDDYAMH / GISWNSGMIGWADSVS / VGRGGGYFDY, the assay gave no signal (0 of 3 replicates; controls 1 of 9).

Top 6 of the variants detected in all replicates, tightest first:

| CDR-H1 | CDR-H2 | CDR-H3 | apparent Kd | replicates with signal | signal with controls |
|---|---|---|---|---|---|
| GFRFDDYARH | GISWNSGDIGYADSVK | VGRGGGYFDY | 2.8 nM | 3/3 | 2/9 |
| GFTFDDYAMH | GISFDSGAIGYADSVK | VGRGGGYFDY | 2.9 nM | 3/3 | 3/9 |
| GFTFDDYAMH | GINWNSGAIGYADSVK | EGRGGGYFDY | 5.1 nM | 3/3 | 1/9 |
| GFTFDDYAMH | GISWNSGGIGYADSVK | VGRGGGYFDY | 390 nM | 3/3 | 1/9 |
| GFTFDDYAMH | GISWNSGNIGYADSVK | VGRVGGYFDY | 4.2 µM | 3/3 | 7/9 |
| HFTKDDYAMH | GISWNSGGIGYADSVK | VGRGGGYFDY | 140 µM | 3/3 | 6/9 |

As a blank, each scFv also met three strains without target: over library AAYL51, 21% of these pairings were detected, typically at 34 µM and seldom below 1.8 µM. The control count says in how many pairings with the empty strains this scFv gave a signal.